Patent publication US6106866A, “In vivo agents comprising cationic drugs, peptides and metal chelators with acidic saccharides and glycosaminoglycans, giving improved site-selective localization, uptake mechanism, sensitivity and kinetic-spatial profiles, including tumor sites” (Access Pharmaceuticals, Inc., priority 1995, dated 2000)

Test: Binding of active to dermatan sulfate carrier (dialysis retention, 500 MW cutoff)
Conditions: ca. 60:40 (active to dermatan sulfate)
Experimental: Multiple batches of Ferrioxamine:Dermatan Sulfate Agent have been prepared.
Vincristine (Sigma Chemical Co., St. Louis) is dissolved in water and mixed with dermatan sulfate at ratios of between 90:10 and 30:70 (w/w) drug to dermatan sulfate.
Amikacin, gentamicin and tobramycin (all obtained from Sigma Chemical Co., St. Louis) are dissolved in water and mixed with either dermatan sulfate (435 Type) or beef lung heparin (Hepar-Kabi-Pharmacia) at ratios of between 90:10 and 30:70 (w/w) drug to glycosaminoglycan.

With poly-L-lysine as the substance, how does the “paired-ion binding of peptide to dermatan sulfate” value read?
Its value is “Strong paired-ion binding”.
